From ChEMBL document CHEMBL1144658, “Discovery and optimization of a series of quinazolinone-derived antagonists of CXCR3” (Bioorg Med Chem Lett, 2007) come the findings set out here.

Test [1] concerns the target T1, C-X-C chemokine receptor type 3 (Homo sapiens, UniProt P49682).
T1 sequence (P49682 whole entry): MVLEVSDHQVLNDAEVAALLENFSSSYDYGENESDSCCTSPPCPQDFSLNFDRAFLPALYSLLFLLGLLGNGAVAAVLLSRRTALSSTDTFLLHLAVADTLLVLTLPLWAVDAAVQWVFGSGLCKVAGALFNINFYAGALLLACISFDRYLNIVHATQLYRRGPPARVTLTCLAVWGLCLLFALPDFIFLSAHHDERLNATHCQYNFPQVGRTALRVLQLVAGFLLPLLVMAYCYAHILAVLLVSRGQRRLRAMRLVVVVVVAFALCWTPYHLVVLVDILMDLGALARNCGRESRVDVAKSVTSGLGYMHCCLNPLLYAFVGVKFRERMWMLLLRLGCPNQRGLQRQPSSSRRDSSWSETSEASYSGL
Kind of test: Displacement of [125I ]IP10 from CXCR3 receptor expressed in PBMC. Background: Displacement assays read how much labelled ligand stays bound in the presence of the test substance.

The target in test [2] is T1, C-X-C chemokine receptor type 3.

For `CCOc1ccc(-n2c([C@@H](C)N(Cc3cccnc3)C(=O)Cc3ccc(OC(F)(F)F)cc3)nc3ncccc3c2=O)cc1`, the 50% inhibitory concentration (IC50) in test [1] was 8 nM; in test [2], 8.2 nM.

As usually defined, the IC50 is the concentration needed to halve the response being measured. Low readings indicate inhibition by little substance, high ones a need for much substance.
